# AlphaSeq binding of Ab-95 light chain variants to a spike HR2 peptide

Source: Engelhart et al. 2022 (doi:10.1038/s41597-022-01779-4), MIT Lincoln Laboratory and A-Alpha Bio; data file from the FLAb repository.

All variants were tested on one target, the spike HR2 peptide PDVDLGDISGINAS (SARS-CoV-2).

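AAYL52 was designed without a model: most single CDR substitutions and a random sample of double and triple ones. The assay is AlphaSeq: two haploid yeast populations carry antibody and antigen on their surface. The frequency of each diploid, read from paired DNA barcodes, reflects how well the two displayed proteins bind. Scores were corrected for input abundance and mapped to Kd with protein pairs of known affinity run in the same pool. The assay was run in three technical replicates.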

Parent scFv Ab-95: VH joined to VL by the linker GGGGSGGGGSGGGGS. Changes lie in the light chain CDRs alone.
VH: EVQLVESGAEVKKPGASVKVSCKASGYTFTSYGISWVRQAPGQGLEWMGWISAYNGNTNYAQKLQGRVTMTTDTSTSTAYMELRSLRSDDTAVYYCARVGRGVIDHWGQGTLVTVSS
VL: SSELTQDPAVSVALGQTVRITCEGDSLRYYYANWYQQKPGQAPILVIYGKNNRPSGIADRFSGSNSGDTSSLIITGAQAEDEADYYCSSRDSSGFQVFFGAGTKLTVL

Variants are written as CDR1, CDR2 and CDR3 of the light chain (limits as in the source). Parent: EGDSLRYYYAN, GKNNRPS, SSRDSSGFQVF.
Values are log10 of the apparent Kd in nM; lower means stronger binding.
The mean shown is taken over the replicates in which the pair was detected.
A pair that was not seen in that replicate is written "n.d."; this usually means weak binding, but a binder can also be missed.

CDR-L1	CDR-L2	CDR-L3	log10 Kd, replicates	log10 Kd (nM), mean	signal with controls
EGDSLRYYNYN	GKNNKPS	SSRDSSGFQVF	3.38 3.58 3.16	3.37	2/9 (3.62)
QGDSLRYYYAN	GLENRPS	SSRDSSGFQVF	2.82 2.48 3.30	2.87	1/9 (2.99)
EGDSVRYYYAN	GKNFRPS	FSRDSSGFQVF	n.d. 4.15 n.d.	4.15	3/9 (3.53)
EGDSLRYHYAN	GKNNRPR	SSYDSSGFQVF	2.07 2.11 1.77	1.98	3/9 (3.87)
EGDSLRYYYAN	GKNNFPS	SARDSSGFQVG	n.d. 3.27 n.d.	3.27	3/9 (3.74)
EGNSLRYYYAN	GKNNYPS	SSRQSSGFQVF	n.d. n.d. n.d.	n.d.	1/9 (2.75)
TGDSLRYYYAN	GKNNEPS	SSRDSSGLQVF	3.05 n.d. n.d.	3.05	0/9
EHDNLRYYYAN	GKNTRPS	SSRDSSGFQVF	2.75 2.76 2.01	2.51	1/9 (4.64)
EGDSLWYYYAN	GENNRPS	SSRDSSGFGVF	1.80 1.79 1.41	1.66	5/9 (3.79)
EGDSLRSYYAN	GKNNRPS	SSPDSSGQQVF	1.68 1.73 1.57	1.66	3/9 (4.26)
EADSLRYYYAN	GKPNRPS	SSRDSSGFQVF	4.79 5.50 3.69	4.66	7/9 (4.26)
EGDSLRKYYMN	GKNWRPS	SSRDSSGFQVF	n.d. 3.94 2.93	3.43	0/9
EGDSLRYYYAN	GKNNRPS	SSRDMRGFDVF	2.12 2.04 1.82	1.99	4/9 (4.05)
EDDSLRYYYAD	GKNNRPS	SSRDSSGFQVF	3.07 n.d. 2.95	3.01	2/9 (3.26)
EGDSLRYYYAN	GANWRPS	SSRSSSGFQVF	2.73 3.11 2.24	2.69	1/9 (2.85)
EGDSLRYYYAN	AKQNRPS	SSRDSSGFDVF	4.49 3.67 4.19	4.12	3/9 (5.00)
EGTSLRYYYAN	GKGNRPS	SSRDSSGPQVF	2.70 2.84 2.71	2.75	4/9 (3.90)
EGDSLRYYMAN	GKNMRPS	TSRDSSGFQVF	2.43 2.73 2.39	2.52	2/9 (3.34)
EGDSLRYYHAN	QKNNRNS	SSRDSSGFQVF	2.69 2.65 2.58	2.64	2/9 (4.22)
EGDSLRYYYAD	GKNNRPM	SRRDSSGFQVF	4.09 n.d. n.d.	4.09	4/9 (4.07)
EGDSLRLYYAS	GKNNRPS	SSRDSSGFQVL	4.28 3.99 n.d.	4.13	2/9 (4.30)
YGDSLRYYYAN	GKNIRPS	SSRDSSEFQVF	n.d. n.d. n.d.	n.d.	0/9
EGKSLRYYYAN	GKNNRPS	PSRDSSGFQIF	4.09 n.d. n.d.	4.09	2/9 (3.34)
EGDSLRYYYAN	GKNFSPS	SSRDSSFFQVF	3.64 4.57 n.d.	4.11	3/9 (3.52)
EGDSLVYYYAN	KKDNRPS	SSRDSSGFQVF	n.d. n.d. n.d.	n.d.	4/9 (3.92)
EGDSLRYYYAN	MKNNRPT	SSRDSSGFQDF	4.08 n.d. n.d.	4.08	1/9 (4.73)
EGYSLRYYYAL	GKNNRPS	CSRDSSGFQVF	n.d. 4.28 n.d.	4.28	1/9 (3.78)
EGDSLRYYYAW	GKNNRIS	SSRDSSGFQVF	3.28 2.82 n.d.	3.05	1/9 (4.86)
EGDSLRYAYAN	GKNNRPS	SFRDSSGFWVF	2.78 3.11 3.68	3.19	2/9 (4.16)
EGDSLRYYYAG	GKNNLPS	SSIDSSGFQVF	4.56 5.43 4.25	4.75	2/9 (3.21)
EGLSLRYYYAN	GKNNRQS	SSRDSSGVQVF	5.34 2.99 n.d.	4.16	1/9 (3.50)
EGDSLRYYYAN	GKNNRPS	SMRDSQGFQQF	3.48 3.22 n.d.	3.35	2/9 (2.96)
EGDSLRSYYAN	GKCNRPS	SSRDSKGFQVF	3.38 4.70 n.d.	4.04	5/9 (4.36)
EGDSLSYYYTN	GKNCRPS	SSRDSSGFQVF	3.86 4.36 3.19	3.81	5/9 (4.43)
ERDSLRYYYAN	GKNNIPY	SSRDSSGFQVF	n.d. n.d. 4.35	4.35	4/9 (3.88)
EGDSLRPYYAN	GKNNRPS	SSRDESIFQVF	n.d. n.d. n.d.	n.d.	0/9
TGDSLCYYYAN	GKCNRPS	SSRDSSGFQVF	5.39 3.67 n.d.	4.53	3/9 (3.71)
EGDSLRYYYAK	GKNNRPS	STADSSGFQVF	n.d. 3.04 n.d.	3.04	0/9
EGDSPRYYYAN	GKNNHPS	SSRDRSGFQVF	n.d. n.d. n.d.	n.d.	1/9 (3.29)

Three control strains display no target. For library AAYL52, 28% of the pairings with them gave a signal, with a median of 3.91 and one signal in twenty below 2.90, so weak values seen in few replicates may be background. Also given: how often the same scFv was detected with the empty control strains, with their mean in brackets.